A selection: hits, their analogues and other compounds. The true share with any hit is near 1%.
Rtt109 Vps75 – blocks Candida albicans Rtt109/Vps75 acetyltransferase activity; 0.16% of 330,000 active; AID 540336; inhibition, % at 34.9 µM; purified Rtt109/Vps75, ThioGlo CoA-SH fluorescence, 4 h;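 active means inhibition of at least 50% in every replicate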
CDK5 p35 inh – blocks human CDK5/p35 kinase activity | Recombinant CDK5/p35, ADP-Glo luminescence, 60 min | Q00535+Q15078 | inhibition, % at 10 µM | 0.01% of 330,000 active;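 active means highest replicate inhibition of at least 50% and at least 75% of replicates reaching 50%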;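 further: plate controls were DMSO neutral control for no effect and GW8510 at 10 µM for full effect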
Yeast UUG start – yeast start codon fidelity modulation | S. cerevisiae UUG-firefly luciferase reporter, luminescence/redox ratio | activity score, % at 18.7 µM | hit rate 0.13% among 350,000 | AID 602363;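 active means replicate mean at a twofold rise or more, about +100% in these data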;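 further: firefly luciferase made from a UUG start codon reports start codon fidelity; reporter light over untreated wells divided by growth signal over untreated wells; some hits fall short of that in this replicate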
Cneo AK release – Cryptococcus neoformans lysis via adenylate kinase release. C. neoformans lysis, adenylate kinase release luminescence, 4 h; normalised: neutral wells 0, clomiphene wells 100. lysis activity, % at 15 µM. 0.2% of 360,000 active. AID 651654;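 active means mean lysis activity across replicates of at least 80%, whatever share of replicates individually reach that level; inactive means mean lysis activity below 80%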
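Material – Cryptococcus neoformans yeast cells · Quantity – 5 × 10^6 yeast cells/mL · Buffer or medium – YPD medium · Compound – single dose · Timing – 4 h static compound exposure, 37 °C, read 1 h post-reagent · Signal – adenylate kinase release luminescence · Read-out basis – lysis from increased AK signal · Benchmarks – Clomiphene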
C2C12 statin – suppressors of simvastatin-induced myotoxicity in C2C12 myotubes. ATP luminescence, 48 h; scaled: DMSO 0, geranylgeraniol control 100. rescue of ATP level, % at 7.49 µM. 0.78% of 330,000 active. AID 602340;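 active means mean ATP rescue above about 67%, or every replicate alone reaching that limit, limit read from the data, passing the limit was not always enough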;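 further: myotubes were challenged with 10 µM simvastatin during compound exposure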
An asterisk follows results filed as active; . = no result given.

item	Compound	Rtt109 Vps75	CDK5 p35 inh	Yeast UUG start
1	C=CC(=O)Nc1cccc(Nc2nc(N[C@H]3CC[C@H](N(C)C)CC3)nc3c2ncn3C(C)C)c1	29.6	83.2*	-10.9
2	CO[C@@H]1CN(C)C(=O)c2ccc(NC(=O)NC3CCCCC3)cc2OC[C@@H](C)N(CC2CCOCC2)C[C@H]1C	.	.	.
3	COc1ccc([N+](=O)[O-])cc1NC(=O)CCCOc1ccccc1	-5.6	1.0	-8.9
4	COc1ccc(OCCCC(=O)Nc2cc([N+](=O)[O-])ccc2C)cc1	-5.1	-1.2	-8.2
5	CCCNC(=O)N1C[C@@H]2[C@H](c3ccccc31)[C@@H](CO)N2Cc1ccc(OC)cc1	.	.	13.3
6	CCCNC(=O)N1C[C@@H]2[C@H](c3ccccc31)[C@H](CO)N2Cc1ccc(OC)cc1	.	.	12.9
7	COc1ccccc1CNC(=S)NCc1ccc(Cl)cc1	0.9	-1.7	-34.4
8	O=C(NC1CCCCC1NC(=O)c1ccco1)c1ccco1 (configuration not stated)	-2.7	-0.1	-5.4
9	O=C(NC1c2ccccc2-c2ccccc21)c1ccco1	0.9	1.7	-3.5
10	Cc1ccc(NC(=O)CN(C)CC(=O)Nc2ccc(N3CCOCC3)cc2)c(C)c1	0.7	1.2	-4.8

item	Cneo AK release	C2C12 statin
1	3.7	-249.4
2	0.6	-8.6
3	1.7	12.8
4	0.3	73.4*
5	-0.8	-6.5
6	100.6*	-9.8
7	136.7*	-5.9
8	1.0	7.0
9	-0.2	120.1*
10	-5.9	.

Other structures follow.
item	Compound	Rtt109 Vps75	CDK5 p35 inh	Yeast UUG start
11	CN(CC(=O)Nc1ccc(N2CCOCC2)cc1)CC(=O)Nc1ccccc1C#N	7.6	-1.2	-8.9
12	Cc1oc(-c2ccc(Cl)cc2)[n+]([O-])c1C	2.7	-0.7	-20.9
13	Cc1noc(C)c1NC(=O)Nc1ccc2c(c1)CC(=O)N([C@@H](C)CO)C[C@@H](C)[C@H](CN(C)CC1CC1)O2	.	.	-2.9
14	C[C@@H]1CN([C@@H](C)CO)C(=O)c2cc(C#CCN(C)C)cnc2O[C@H]1CN(C)C(=O)c1cccc(F)c1	.	.	5.3
15	COCC(=O)Nc1ccc2c(c1)C(=O)N(C)C[C@H](OC)[C@@H](C)CN(Cc1ccncc1)[C@@H](C)CO2	.	.	-13.1
16	Cc1ccc2[nH]c(=O)c(CN(CCCN3CCOCC3)C(=O)NC3CCCCC3)cc2c1	0.8	-7.7	-14.2
17	CCc1ccc2[nH]c(=O)c(CN(CCN3CCCC3)C(=O)NC3CCCCC3)cc2c1	19.1	1.3	16.8
18	COC(=O)c1ccc(C2CC(=O)NC3=C2C(=O)CCC3)cc1 (configuration not stated)	5.6	0.2	-8.2
19	Cc1onc(-c2ccccc2)c1C(=O)OCC(=O)Nc1ccc2c(c1)OCO2	-9.0	0.4	-2.1
20	Cc1onc(-c2ccccc2Cl)c1C(=O)OCC(=O)Nc1ccc2c(c1)OCO2	5.5	.	-7.8

item	Cneo AK release	C2C12 statin
11	6.1	94.8*
12	6.9	75.6*
13	0.4	-16.6
14	2.6	0.4
15	-3.9	2.1
16	0.0	-5.5
17	0.1	94.6*
18	-0.5	113.9*
19	-0.1	101.8*
20	-0.7	.

Three entries from above, set out differently.
14. C[C@@H]1CN([C@@H](C)CO)C(=O)c2cc(C#CCN(C)C)cnc2O[C@H]1CN(C)C(=O)c1cccc(F)c1
15. COCC(=O)Nc1ccc2c(c1)C(=O)N(C)C[C@H](OC)[C@@H](C)CN(Cc1ccncc1)[C@@H](C)CO2
16. Cc1ccc2[nH]c(=O)c(CN(CCCN3CCOCC3)C(=O)NC3CCCCC3)cc2c1

compound no. | 14 | 15 | 16
Rtt109 Vps75 | . | . | 0.8
CDK5 p35 inh | . | . | -7.7
Yeast UUG start | 5.3 | -13.1 | -14.2
Cneo AK release | 2.6 | -3.9 | 0.0
C2C12 statin | 0.4 | 2.1 | -5.5

(further entries)
item	Compound	Rtt109 Vps75	CDK5 p35 inh	Yeast UUG start
21	CC(C)(C)c1ccc(OCC(=O)N/N=C/c2cc(Br)ccc2OC(=O)c2ccco2)cc1	0.1	1.4	-9.1
22	Cn1c(CSc2ncn[nH]2)nc2ccccc21	1.3	-0.2	-20.5
23	C[C@H]1CN([C@@H](C)CO)C(=O)Cc2cc(NS(=O)(=O)c3cccs3)ccc2O[C@H]1CN(C)Cc1ccc(Cl)c(Cl)c1	.	.	0.8
24	O=C(/C=C/c1cccc2ccccc12)NCCC1=CCCCC1	0.0	-0.3	-14.2
25	COc1cccc(/C=C/C(=O)OCC(=O)NCCC2=CCCCC2)c1OC	-2.7	1.5	-6.0
26	CCOc1ccc(C(=O)Oc2cc(C)[nH]c(=O)c2[N+](=O)[O-])cc1	-7.0	-0.6	-9.9
27	Cc1ccc(S(=O)(=O)Nc2ccc3c(c2)C(=O)N([C@H](C)CO)C[C@H](C)[C@H](CN(C)C(=O)Nc2c(C)noc2C)O3)cc1	.	.	-9.3
28	O=C(CN1CCCc2ccccc21)NCc1ccc2c(c1)OCO2	64.0*	-1.3	-11.2
29	O=C(CSc1nc(CCC2CCCC2)nc2ccccc12)NCc1ccc2c(c1)OCO2	.	-0.6	-22.3
30	O=C(CN1CCc2ccccc21)NCc1ccc2c(c1)OCO2	.	1.7	.
31	Cc1ccc(CNc2nc(N)c([N+](=O)[O-])c(Nc3ccc(F)cc3)n2)cc1	-11.1	0.4	-12.0
32	CCC(=O)N1C[C@@H](O)COC[C@H]2O[C@@H](CC(=O)NCc3cc(F)cc(F)c3)CC[C@@H]21	.	.	6.7

item	Cneo AK release	C2C12 statin
21	-0.4	135.3*
22	-1.7	98.1*
23	-0.7	12.2
24	0.8	82.1*
25	-1.2	4.3
26	-0.4	126.8*
27	-5.6	-15.8
28	0.1	1.1
29	115.4*	12.8
30	.	.
31	-0.2	122.8*
32	-2.2	4.0

Screening data from PubChem.
